Bioassay records as filed in PubChem.
Sampled rows, rich in hits. Any-hit rate of the full collection: about 1.2%.
Glyco luc inh = increase of ERlucT glycosylation luciferase signal, primary screen, N-linked glycosylation inhibitor project, D54 ERlucT cells, luminescence, set 2; D54 ERlucT glycosylation luciferase reporter, 24 h; percent of 100 nM tunicamycin response; reporter increase, % at 12.5 µM; 0.23% of 360,000 active; AID 588692, 2011;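 active means mean luciferase reporter signal, scaled so untreated is 0 and the glycosylation-blocking control 100, at or above a set limit in every replicate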;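 further: luciferase carries N-glycosylation sites so blocking glycosylation raises the light; 0% = median of neutral control wells and 100% = median of 100 nM tunicamycin wells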
Yeast UUG start = yeast start codon fidelity modulation | S. cerevisiae UUG-firefly luciferase reporter, luminescence/redox ratio | activity score, % at 18.7 µM | hit rate 0.13% among 350,000 | AID 602363;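 active means replicate mean at a twofold rise or more, about +100% in these data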;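 further: firefly luciferase made from a UUG start codon reports start codon fidelity; reporter light over untreated wells divided by growth signal over untreated wells; some hits fall short of that in this replicate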
C2C12 statin = suppressors of statin myotoxicity in C2C12 myotubes, primary screen, cell-based, single point, plate reader; C2C12 myotubes + simvastatin, ATP luminescence, 48 h; scaled: DMSO 0, geranylgeraniol control 100; AID 602340, 2012; rescue of ATP level, % at 7.49 µM; 0.78% of 330,000 active;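 active means mean ATP rescue above about 67%, or every replicate alone reaching that limit, limit read from the data, passing the limit was not always enough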;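 further: myotubes were challenged with 10 µM simvastatin during compound exposure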
miR-122 sensor = miR-122 Renilla sensor signal increase in Huh7, primary screen, miR-122 inhibitor project, cell-based, single point, plate reader. Huh7 miR-122 Renilla luciferase sensor, 48 h; neutral wells = 0, positive control = 100. activation (reporter increase), % at 12.5 µM. 0.3% of 340,000 active;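 active means mean replicate activation score at least 90 and every replicate individually at or above 90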;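 further: higher luciferase means less miR-122 activity so hits act as miR-122 inhibitors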
Cneo AK release = Cryptococcus neoformans cell lysis inducers, primary screen, AK release luminescence, single concentration | C. neoformans lysis, adenylate kinase release luminescence, 4 h; normalised: neutral wells 0, clomiphene wells 100 | lysis activity, % at 15 µM | 0.2% of 360,000 active | AID 651654, 2012;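 active means mean lysis activity across replicates of at least 80%, whatever share of replicates individually reach that level; inactive means mean lysis activity below 80%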
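Assay system: C. neoformans cells. Amount: yeast cell density of 5 × 10^6 cells/mL. Technique: AK luminescence. Buffer or medium: YPD. Times: static 4 h at 37 °C with compound, 1 h detection. Dosing: single-point compound dose. Read-out: lysis from increased AK signal.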
* hit, by the source's call; [ ] = another dose, or the depositor's remark.

The first 3 records, ahead of the listing:
Screening CC(=O)N(C)C[C@@H]1Oc2ncc(-c3ccccc3F)cc2C(=O)N([C@@H](C)CO)C[C@@H]1C returned Yeast UUG start -10, C2C12 statin 1, miR-122 sensor -7[16.7 µM] and Cneo AK release 2.
For C[C@@H]1CCCCO[C@@H](CN(C)C(=O)NC2CCCCC2)[C@H](C)CN([C@H](C)CO)C(=O)c2cc(NC(=O)Nc3ccc4c(c3)OCO4)ccc2O1 the results were Yeast UUG start -5, miR-122 sensor -11[16.7 µM] and Cneo AK release -6.
Screening O=C1/C(=C/c2ccccc2[N+](=O)[O-])COc2ccccc21 returned Glyco luc inh -16, Yeast UUG start -11, C2C12 statin 169*, miR-122 sensor 11 and Cneo AK release -6.

Main list, repeating the preview:
Screening CC(=O)N(C)C[C@@H]1Oc2ncc(-c3ccccc3F)cc2C(=O)N([C@@H](C)CO)C[C@@H]1C returned Yeast UUG start -10, C2C12 statin 1, miR-122 sensor -7[16.7 µM] and Cneo AK release 2.
For C[C@@H]1CCCCO[C@@H](CN(C)C(=O)NC2CCCCC2)[C@H](C)CN([C@H](C)CO)C(=O)c2cc(NC(=O)Nc3ccc4c(c3)OCO4)ccc2O1 the results were Yeast UUG start -5, miR-122 sensor -11[16.7 µM] and Cneo AK release -6.
Screening O=C1/C(=C/c2ccccc2[N+](=O)[O-])COc2ccccc21 returned Glyco luc inh -16, Yeast UUG start -11, C2C12 statin 169*, miR-122 sensor 11 and Cneo AK release -6.
For COc1cccc(CC(NC(C)=O)C(=O)NC2CCN(c3nc(C)cc(C)c3C#N)CC2)c1 (stereo not drawn) the results were Glyco luc inh -2, Yeast UUG start 4, C2C12 statin 118*, miR-122 sensor -2 and Cneo AK release -1.
`OCC1OC(n2ccc3c(SCc4ccccc4)ncnc32)C(O)C1O` (stereo not drawn) gave Glyco luc inh 32*, Yeast UUG start -16, C2C12 statin -7 and Cneo AK release -3.
For OCC1OC(n2cnc3c(SCc4ccccc4)ncnc32)C(O)C1O (stereo not drawn) the results were Glyco luc inh 113* and miR-122 sensor -3.
For C[C@H](CO)N1C[C@H](C)[C@H](CN(C)C(=O)c2ccc3ccn(C)c3c2)OCc2cn(nn2)CCCC1=O the results were C2C12 statin 6 and miR-122 sensor 2[16.7 µM].
For C[C@H]1CCCCO[C@H](CN(C)C(=O)C2CCCCC2)[C@@H](C)CN([C@@H](C)CO)C(=O)c2cc(NC(=O)Cc3ccccc3)ccc2O1 the results were Yeast UUG start 7, C2C12 statin 80*, miR-122 sensor -10[16.7 µM] and Cneo AK release 0.
`C[C@H](CO)N1C[C@H](C)[C@H](CN(C)C(=O)Nc2ccc(F)cc2)OCCCC[C@H](C)Oc2ccc(NC(=O)Cc3ccccc3)cc2C1=O` gave Yeast UUG start -3, C2C12 statin 107*, miR-122 sensor 3[16.7 µM] and Cneo AK release 2.
C[C@@H]1CCCCO[C@@H](CN(C)C(=O)Nc2ccccc2)[C@H](C)CN([C@@H](C)CO)C(=O)c2cc(NC(=O)Cc3ccccc3)ccc2O1 was read as Yeast UUG start -7, miR-122 sensor -10[16.7 µM] and Cneo AK release -3.
For C[C@@H]1CN([C@H](C)CO)C(=O)Cc2cc(NC(=O)Cc3cn(C)c4ccccc34)ccc2O[C@H]1CN(C)C(=O)Nc1cccc2ccccc12 the results were Yeast UUG start -4, C2C12 statin 13, miR-122 sensor 7[16.7 µM] and Cneo AK release -1.
For CNC[C@@H]1Oc2ccc(NC(=O)CCC(F)(F)F)cc2C(=O)N([C@@H](C)CO)C[C@H]1C the results were Yeast UUG start -6, C2C12 statin -28, miR-122 sensor -5[16.7 µM] and Cneo AK release -7.
For Cc1cc(NC(=O)COC(=O)C2CCN(S(=O)(=O)c3ccc(Cl)cc3)CC2)no1 the results were Glyco luc inh 0, Yeast UUG start -2, miR-122 sensor 2 and Cneo AK release 5.
For Cc1cc(NC(=O)COC(=O)C2CCN(S(=O)(=O)c3c(Cl)cccc3Cl)CC2)no1 the results were Glyco luc inh 2, Yeast UUG start 8, C2C12 statin 109*, miR-122 sensor 6 and Cneo AK release 1.
Screening COc1ccc(C2CC(=O)Oc3c(C(CCN4CCCCC4)c4ccc(N(C)C)cc4)c(OC)cc(OC)c32)cc1 (stereo not drawn) returned Glyco luc inh -1, Yeast UUG start -3, C2C12 statin 121*, miR-122 sensor 5 and Cneo AK release 1.
Screening COc1ccc(C2CC(=O)Oc3c(C(CCN4CCCC(C)C4)c4ccc(N(C)C)cc4)c(OC)cc(OC)c32)cc1 (stereo not drawn) returned Glyco luc inh -6, Yeast UUG start -1, C2C12 statin 3, miR-122 sensor 6 and Cneo AK release 1.
CC(C)NC(=O)N(C)C[C@H]1Oc2c(NC(=O)c3ccncc3)cccc2C(=O)N([C@H](C)CO)C[C@@H]1C was read as Yeast UUG start -16, C2C12 statin 0, miR-122 sensor 3[16.7 µM] and Cneo AK release 6.
C[C@@H]1CN([C@H](C)CO)C(=O)c2cc(NC(=O)Nc3cccc4ccccc34)ccc2O[C@@H](C)CCCCO[C@@H]1CN(C)C(=O)NC1CCCCC1 was read as Yeast UUG start 5, C2C12 statin 74*, miR-122 sensor -4[16.7 µM] and Cneo AK release -2.
For C[C@H](CO)N1C[C@H](C)[C@H](CN(C)C(=O)NC2CCCCC2)OCCCC[C@H](C)Oc2ccc(NC(=O)C3CCCCC3)cc2C1=O the results were Yeast UUG start 4, C2C12 statin 7, miR-122 sensor -2[16.7 µM] and Cneo AK release 104*.
Screening C[C@@H]1CN([C@@H](C)CO)C(=O)c2cc(NC(=O)Nc3cccc4ccccc34)ccc2O[C@@H](C)CCCCO[C@H]1CN(C)C(=O)NC1CCCCC1 returned Yeast UUG start -35, C2C12 statin 9, miR-122 sensor -2[16.7 µM] and Cneo AK release 3.
`C[C@H](CO)N1C[C@H](C)[C@H](CN(C)C(=O)NC2CCCCC2)OCCCC[C@H](C)Oc2ccc(NC(=O)Nc3cccc4ccccc34)cc2C1=O` gave Yeast UUG start 0, C2C12 statin 137*, miR-122 sensor 4[16.7 µM] and Cneo AK release 2.
`C[C@H]1CCCCO[C@@H](CN(C)C(=O)NC2CCCCC2)[C@@H](C)CN([C@@H](C)CO)C(=O)c2cc(NC(=O)Nc3cccc4ccccc34)ccc2O1` gave Yeast UUG start 21, C2C12 statin 96*, miR-122 sensor 3[16.7 µM] and Cneo AK release 2.
`O=C(C1CC1)N1CC[C@@H]2[C@H](CO)Nc3ccc(C#Cc4ccc(F)cc4)cc3[C@@H]21` gave Yeast UUG start -6, C2C12 statin 5, miR-122 sensor -10[16.7 µM] and Cneo AK release 2.
Screening Cc1[nH][nH]c(=O)c1C(c1ccc(-c2ccc(F)cc2)o1)c1c(C)[nH][nH]c1=O returned Glyco luc inh 18.
`Cc1[nH][nH]c(=O)c1C(c1ccc(-c2ccc(Cl)c(Cl)c2)o1)c1c(C)[nH][nH]c1=O` gave Glyco luc inh 46*, Yeast UUG start -30, C2C12 statin 9, miR-122 sensor 2 and Cneo AK release -1.
